Assay results taken from paper PMC12399007.

What was measured:
[1] = target: fascin-bundled F-actin (3.0 µM F-actin pre-incubated with 0.3 µM fascin) (rabbit | mouse) (UniProt P68135); test: co-sedimentation; high-speed centrifugation (HSC, 1 h, 40,000 rpm, 20 °C); 3.0 µM F-actin pre-incubated with 0.3 µM fascin for 20 min, titrated with Tpm2 isoforms 0-3.0 µM; 5 mM Tris, 100 mM NaCl, 2 mM MgCl2, 1 mM DTT, pH 7.5; Hill fit, apparent Kapp; fascin band in the pellets also quantified
[2] = target: fascin-bundled F-actin (3.0 µM F-actin pre-incubated with 0.3 µM fascin) (rabbit | mouse) (UniProt P68135); test: co-sedimentation; low-speed centrifugation (LSC, 30 min, 9,000 rpm; bundles only); 3.0 µM F-actin pre-incubated with 0.3 µM fascin for 20 min, titrated with Tpm2 isoforms 0-3.0 µM; 5 mM Tris, 100 mM NaCl, 2 mM MgCl2, 1 mM DTT, pH 7.5; Hill fit, apparent Kapp; fascin band in the pellets also quantified
[3] = target: F-actin (rabbit skeletal muscle actin, polymerized) (rabbit) (UniProt P68135); test: co-sedimentation; high-speed centrifugation (HSC, 1 h, 40,000 rpm, 20 °C); 3.0 µM F-actin titrated with Tpm2 isoforms 0-3.0 µM, no fascin; 5 mM Tris-HCl, 100 mM NaCl, 2 mM MgCl2, 1 mM DTT, pH 7.5; Hill fit, apparent association constant Kapp
[4] = target: GST-tagged mouse fascin-1 immobilized on glutathione-agarose (mouse) (UniProt Q61553); test: pull-down; GST-fascin-1 from E. coli lysate immobilized on glutathione-agarose and washed; incubated with 30 µM Tpm isoform overnight at 4 °C in 5 mM Tris-HCl pH 7.5, 100 mM NaCl, 2 mM MgCl2, 1 mM DTT; washed at 30 mM NaCl; eluted with PreScission Protease; SDS-PAGE
[5] = target: F-actin saturated with Tpm2.4 (rabbit | human) (UniProt P68135); test: co-sedimentation; high-speed centrifugation (HSC); 3.0 µM F-actin, alone or pre-incubated 15 min with 2.0 µM Tpm2 isoform, incubated with fascin 0-1.1 µM for 1 h at RT; 5 mM Tris-HCl, 100 mM NaCl, 2 mM MgCl2, 1 mM DTT, pH 7.5; Hill fit, apparent Kapp
[6] = target: F-actin saturated with Tpm2.3 (rabbit | human) (UniProt P68135); test: as above

Substance	Ka [1]	Ka [2]	Ka [3]	fold band intensity against Tpm2.1 and Tpm2.3 [4]	Ka [5]	Ka [6]
Tpm2.1, recombinant N-terminally acetylated human tropomyosin isoform encoded by TPM2 (from UniProt P07951-2 1-284) (natural protein)	1.5e+06 M⁻¹	1.5e+06 M⁻¹				
Tpm2.3, recombinant N-terminally acetylated human tropomyosin isoform encoded by TPM2 (natural protein)	800000 M⁻¹	2e+06 M⁻¹	1.9e+06 M⁻¹			
Tpm2.4, recombinant N-terminally acetylated human tropomyosin isoform encoded by TPM2 (natural protein)	5.2e+06 M⁻¹	5.7e+06 M⁻¹	5.1e+06 M⁻¹	5 fold		
recombinant mouse fascin-1 with GPLGS N-terminal extension (GST tag cleaved) (natural protein)					6.7e+06 M⁻¹	9.4e+06 M⁻¹
